Experimental findings from US7217704B2, “LPA receptor agonists and antagonists and methods of use” (The University of Tennessee Research Foundation, priority 2003, dated 2007) are described below.

Protein sequences, listed by entry. Tags and fused reporters are not part of them.
UniProt Q92633, whole entry: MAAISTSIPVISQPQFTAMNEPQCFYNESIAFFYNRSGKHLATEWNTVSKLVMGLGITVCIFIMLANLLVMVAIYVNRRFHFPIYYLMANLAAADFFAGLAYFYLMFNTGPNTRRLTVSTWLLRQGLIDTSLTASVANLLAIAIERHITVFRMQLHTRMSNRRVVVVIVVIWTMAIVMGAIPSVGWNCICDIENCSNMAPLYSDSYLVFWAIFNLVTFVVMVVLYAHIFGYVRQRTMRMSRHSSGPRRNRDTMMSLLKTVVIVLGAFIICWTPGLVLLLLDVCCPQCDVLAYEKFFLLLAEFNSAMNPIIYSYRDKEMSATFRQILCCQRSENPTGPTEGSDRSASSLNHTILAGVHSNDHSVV
UniProt Q9HBW0, whole entry: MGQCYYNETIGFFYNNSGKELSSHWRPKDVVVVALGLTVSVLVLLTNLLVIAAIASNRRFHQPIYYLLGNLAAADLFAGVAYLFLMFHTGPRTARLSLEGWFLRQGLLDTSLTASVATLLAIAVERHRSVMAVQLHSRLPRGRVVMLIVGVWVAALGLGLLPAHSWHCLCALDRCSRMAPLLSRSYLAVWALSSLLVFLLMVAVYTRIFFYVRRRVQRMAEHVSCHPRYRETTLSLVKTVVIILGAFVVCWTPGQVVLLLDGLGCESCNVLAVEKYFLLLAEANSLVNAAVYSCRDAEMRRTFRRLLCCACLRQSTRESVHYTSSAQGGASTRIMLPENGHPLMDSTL
UniProt Q9UBY5, whole entry: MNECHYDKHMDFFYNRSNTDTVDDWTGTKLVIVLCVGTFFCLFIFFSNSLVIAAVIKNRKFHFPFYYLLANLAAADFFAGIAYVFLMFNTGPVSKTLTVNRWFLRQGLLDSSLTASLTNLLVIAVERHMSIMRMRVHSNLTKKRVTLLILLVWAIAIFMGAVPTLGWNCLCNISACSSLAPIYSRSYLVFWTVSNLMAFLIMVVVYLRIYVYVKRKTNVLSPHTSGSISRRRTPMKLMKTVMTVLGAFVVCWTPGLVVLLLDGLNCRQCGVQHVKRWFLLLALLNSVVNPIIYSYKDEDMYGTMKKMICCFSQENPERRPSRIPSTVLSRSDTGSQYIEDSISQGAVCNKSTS

The target of experiment [1] is LPA1 (Homo sapiens, UniProt Q92633). The experiment is described as follows: Ca2+ transients (agonism / inhibition of LPA response) in RH7777 cells stably expressing LPA1. The class given is cell-based. Conditions: read-out: LPA1 IC50, inhibition of LPA-induced Ca2+ transients.
The target of experiment [2] is LPA2 (Homo sapiens, UniProt Q9HBW0). The experiment is described as follows: Ca2+ transients (agonism / inhibition of LPA response) in RH7777 cells stably expressing LPA2. The class given is cell-based.
Experiment [3] has as its target LPA3 (Homo sapiens, UniProt Q9UBY5). The experiment is described as follows: Ca2+ transients (agonism / inhibition of LPA response) in RH7777 cells stably expressing LPA3. The class given is cell-based.
Experiment [4] concerns PC-3 cells. The experiment is described as follows: Ca2+ transients in PC-3 cells endogenously expressing LPA1-3. The experiment is classed as cell-based, human. Conditions: maximal efficacy of the drug/maximal efficacy of LPA 18:1.

One may read the IC50 as the point on the concentration scale where inhibition reaches its midpoint. For orientation: EC50 means the midpoint of the concentration-response curve.

As for `CCCCCCCCCCCCCCCC(=O)N[C@@H](COP(=O)(O)O)C(=O)O`, the IC50 in experiment [1] was more than 30 µM; in experiment [2] (read-out: LPA2 IC50, inhibition of LPA-induced Ca2+ transients) it was more than 30 µM; in experiment [3] (read-out: LPA3 IC50, inhibition of LPA-induced Ca2+ transients, RH7777 cells expressing LPA3) it was more than 30 µM. For the same compound, in experiment [2] (Ca2+ transients), the “effect at LPA2 in words” value is “weak agonist”. The EC50 in experiment [2] (read-out: LPA2 EC50, induction of Ca2+ transients) was more than 10 µM. Besides, the “LPA3 (Emax)” value in experiment [3] (maximal efficacy of the drug/maximal efficacy of LPA 18:1) is on record as “(100) %”. Further, the “PC-3 (Emax)” value in experiment [4] is “−(42) %”.
